A short description of data set [1]: in vivo. The note with it: for half-life: t½. Here is the method: Blood samples were taken at various times after administration and submitted to analysis for the prodrug and parent drug using a validated LC-MS-MS assay. Pharmacokinetic parameters derived from the plasma analytical were determined using Win Nonlin.
The conditions of data set [2]: treated patients (Morganroth 1987); cited from earlier work.
Setting [3] is: in vivo, po, 10 mg, Mean, plasma mexiletine, mean of six ferrets, oral 10 mg mexiletine free base equivalents/kg.
Where [4] appears, read: in vivo, po, 10 mg, plasma mexiletine, individual ferrets, oral 10 mg mexiletine free base equivalents/kg.

Marks after values point to notes of the source that are not given here.

As to `Cc1cccc(C)c1OCC(C)N.Cl` (racemic) [Mexiletine hydrochloride, (rac)-1-(2,6-dimethylphenoxy)-2-propanamine hydrochloride], the time to peak (Tmax) came to 30 min in data set [1] (in vivo, po, 10 mg) and 30 min in data set [1] (plasma mexiletine, individual ferrets, oral 10 mg mexiletine free base equivalents/kg). Further, the half-life in data set [1] (in vivo, po, 10 mg mexiletine free base equivalents/kg, Mean, plasma mexiletine, six ferrets, b = calculated as ln2/mean k, oral 10 mg free base equivalents/kg) is 270 min; in data set [1] (setting [4]), 240 min. Besides, the AUC in data set [1] (setting [3]) is 19500 ng·h/mL; in data set [1] (setting [4]), 24400 ng·h/mL. Moreover, the Cmax worked out at 3540 ng/mL in data set [1] (setting [3]) and 3770 ng/mL in data set [1] (setting [4]). Moreover, the “Tmax, Median value” in data set [1] (plasma mexiletine, median of six ferrets, oral 10 mg mexiletine free base equivalents/kg) is reported as 0.5^a h. Further, the “incidence of nausea, vomiting and abdominal discomfort” value in data set [2] was 38%.

In general, Tmax refers to the time at which the peak concentration occurs. For orientation: half-life means the time in which the quantity being followed falls by half. The term AUC denotes the area under the concentration-time curve, a measure of exposure. As a reminder, the Cmax is the peak of the concentration-time curve.

Values taken from patent US20110028552A1, “MEXILETINE AMINO ACID AND PEPTIDE PRODRUGS AND USES THEREOF” (priority 2009, published 2011).
